One may read the Kd as a measure of binding affinity in units of concentration. Higher therefore signals lower affinity.

This note sets out measurements from PMC4458377 (Biochemistry, 2014).

The experiment deals with T1, BAZ2B bromodomain (Homo sapiens, UniProt Q9UIF8).
T1 sequence (Q9UIF8 1868-1972 isoform Q9UIF8-4): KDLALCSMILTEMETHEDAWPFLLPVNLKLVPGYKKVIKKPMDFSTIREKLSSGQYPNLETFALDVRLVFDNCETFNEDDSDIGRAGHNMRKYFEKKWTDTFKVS
Nature of the experiment: ITC of H3K14ac peptides binding to BAZ2B bromodomain.

Turning to `CC(=O)NCCCC[C@H](NC(=O)CNC(=O)CNC(=O)[C@@H](NC(=O)[C@H](CO)NC(C)=O)[C@@H](C)O)C(=O)N[C@@H](C)C(=O)N1CCC[C@H]1C(=O)N[C@@H](CCCNC(=N)N)C(N)=O` [Peptide 5], the Kd worked out at 52.4 ± 2.4 µM.
